The source of these data is patent US20040157809A1, “Composition comprising an androgen receptor blocker and an insulin sensitizing agent and use thereof for treatment of polycystic ovary syndrome” (priority 2001, published 2004).

The experiment has as its system women with ovarian hyperandrogenism. As to the kind of experiment: Example 1: clinical, biochemical and endocrine-metabolic variables on flutamide, metformin or flutamide-metformin. In kind it is in vivo, human. The conditions noted are these: after 9 months, flutamide 250 mg/day, metformin 1275 mg/day, mean.

`CC(C)C(=O)Nc1ccc([N+](=O)[O-])c(C(F)(F)F)c1` [Flutamide, 2-methyl-N-[4-nitro-3(trifluoromethyl)phenyl] popanamide]: the Androstenedione came to 272 ng/dL, the Body mass index is given as 22.3 Kg/m^2, the DHEAS was 231 µg/dL and the Estradiol is reported as 64 pg/mL. Besides, the FSH was found to be 4.6 IU/L, the “Ferriman & Gallwey score” value was 14.1, the Glucose is reported as 83 mg/dL and the HDL-cholesterol is given as 55 mg/dL. The Insulin stood at 14.4 mU/L, the “Insulin Sensitivity (HOMA %)” value came to 69.9%, the LDL-cholesterol is reported as 106 mg/dL and the LH worked out at 8.8 IU/L. This molecule also had an SHBG of 0.8 µg/dL, a Testosterone of 108 ng/dL, a Total cholesterol of 182 mg/dL and a Triglycerides of 94 mg/dL. Also, where the note is “peak 17-hydroxyprogesterone after GnRH agonist”, the “Peak 17-OHP” value turned out to be 216.
